The values below come from PubChem BioAssay AID622 (Vanderbilt High Throughput Screening Facility, 2007).

The chains behind the UniProt entries cited, without tags or fusion partners.
UniProt P62483, whole entry: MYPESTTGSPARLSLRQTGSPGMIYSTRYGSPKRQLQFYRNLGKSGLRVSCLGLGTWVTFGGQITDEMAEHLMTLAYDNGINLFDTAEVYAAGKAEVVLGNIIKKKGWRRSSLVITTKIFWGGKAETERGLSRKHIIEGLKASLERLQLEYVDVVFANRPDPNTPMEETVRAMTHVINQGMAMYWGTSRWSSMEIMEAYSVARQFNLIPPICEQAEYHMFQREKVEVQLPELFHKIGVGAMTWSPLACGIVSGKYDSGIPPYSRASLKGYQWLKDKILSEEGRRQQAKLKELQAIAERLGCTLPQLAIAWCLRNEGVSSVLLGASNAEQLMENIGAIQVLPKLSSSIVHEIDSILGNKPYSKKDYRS

The list shows a part of the results, in another mix than the full data. Calls of active or inactive are those of the source.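 The calls were made as follows: active = fluorescence slope higher than the sample average by over 3 SD (cut at about -0.22 in these data, passing the limit was not always enough); inactive = the rest.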

The assay deals with Voltage-gated potassium channel subunit beta-2 (Rattus norvegicus) (UniProt P62483). Briefly: inhibitors of rat Kvbeta2 reductase activity – biochemical, NADPH fluorescence, primary screen (AID 622).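 Also: slope of raw intensity against log time taken from 70 to 1610 s.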 As to conditions: recombinant KvBeta, 4-cyanobenzaldehyde reduction, at 10 µM, active compounds read high.
On to `CN(C)CCOC(=O)C(O)(c1ccccc1)C1CCCCC1` (stereo unspecified), for which the fluorescence slope was inactive: -0.504.

For the compound `CP(=O)(Nc1ccc2c(c1)OCCO2)Oc1ccccc1` (stereo unspecified), the fluorescence slope was inactive: -0.305.

In the case of `CCN(CC)CC(O)COC(=O)C(O)(c1ccccc1)C1CCCCC1` (stereo unspecified), the fluorescence slope is inactive: -0.498.

For `CP(=O)(Nc1ccccn1)Oc1ccccc1` (stereo unspecified), the fluorescence slope was inactive: -0.381.

As to `CP(=S)(Nn1cnnc1)Oc1ccccc1` (stereo unspecified), the fluorescence slope is inactive: -0.612.

As to `Cc1ccc(C)c(NP(C)(=O)Oc2ccccc2)c1` (stereo unspecified), the fluorescence slope was inactive: -0.449.
